We go through 2 substances from patent US20260201076A1, “CONJUGATES OF POLYSACCHARIDES AND HYDROPHOBIC COMPOUNDS AS EMULSION STABILIZERS” (BASF SE, priority 2022, published 2026).

Read-outs that look alike come from different tables or passages of the source.

Setting [1] is: sandy soil Lihof C15, ISO 17556, after 28 days.
Where [2] appears, read: sandy soil Lihof C15, ISO 17556, after 90 days.

In the case of dextran-graft-Citropol [Example 7], the biodegradation by setting is: under setting [1], 59%; under setting [2], 75%.

dextran-graft-menthol [Example 6] came in with a biodegradation under setting [1] of 72% and a biodegradation under setting [2] of 85%.
